# Values quoted from earlier work in US6231888A, “Local delivery of non steroidal anti inflammatory drugs (NSAIDS) to the colon as a treatment for colonic polyps” (Perio Products Ltd., priority 1998, dated 2001).
# Columns and labels:
# [1] = system: villous adenomas of the cecum; conditions: 30 mg weekly
smiles,measurement,setting,value
CN1C(C(=O)Nc2ccccn2)=C(O)c2ccccc2S1(=O)=O [piroxicam],Duration of regression,[1],up to 20 months
same,Regression of the premalignant adenomas,[1],dramatic and sustained regression
same,Regression of adenomatous polyps,sporadic colonic polyps,no similar regression of adenomatous polyps
